Experimental data from patent US20240304840A1 (priority 2023, published 2024).

Columns and labels:
[1] = 1 mAh H-cell, 1 M sodium chloride, Selemion AMVN, about 20 days
Source text: An H-cell can be used for the coulombic efficiency tests. […] The electrolyte can be dissolved in about 1 M sodium chloride for electrochemical stability testing. The moles of anolyte and catholyte molecules present can be controlled to achieve the desired capacity of 1 mAh. […] Selemion™ anion exchange membrane (AMVN) can be used for the H-cells.

[2] = HPLC after 107 cycles over 30 days, 1 M KCl

| Substance | crossover in H-cell [1] | crossover of anolyte into the catholyte solution [2] |
| --- | --- | --- |
| N,N,N,N2,N2-pentamethyl-N2-ferrocenylbutyl-1,3-propanediaminium dichloride [ferrocene-diammonium-Cl2] | almost no crossover | – |
| monosodium glutamate-PDI [MSG-PDI] | – | no crossover |
